# In EP4700018A1, “NAV1.8 INHIBITORS, PREPARATION METHOD THEREFOR AND USE THEREOF” (Shanghai Institute of Materia Medica, Chinese Academy of …, priority 2023, dated 2024):
# By UniProt entry, the sequences of proteins in these tests, tags left out.
# UniProt Q9Y5Y9, whole entry: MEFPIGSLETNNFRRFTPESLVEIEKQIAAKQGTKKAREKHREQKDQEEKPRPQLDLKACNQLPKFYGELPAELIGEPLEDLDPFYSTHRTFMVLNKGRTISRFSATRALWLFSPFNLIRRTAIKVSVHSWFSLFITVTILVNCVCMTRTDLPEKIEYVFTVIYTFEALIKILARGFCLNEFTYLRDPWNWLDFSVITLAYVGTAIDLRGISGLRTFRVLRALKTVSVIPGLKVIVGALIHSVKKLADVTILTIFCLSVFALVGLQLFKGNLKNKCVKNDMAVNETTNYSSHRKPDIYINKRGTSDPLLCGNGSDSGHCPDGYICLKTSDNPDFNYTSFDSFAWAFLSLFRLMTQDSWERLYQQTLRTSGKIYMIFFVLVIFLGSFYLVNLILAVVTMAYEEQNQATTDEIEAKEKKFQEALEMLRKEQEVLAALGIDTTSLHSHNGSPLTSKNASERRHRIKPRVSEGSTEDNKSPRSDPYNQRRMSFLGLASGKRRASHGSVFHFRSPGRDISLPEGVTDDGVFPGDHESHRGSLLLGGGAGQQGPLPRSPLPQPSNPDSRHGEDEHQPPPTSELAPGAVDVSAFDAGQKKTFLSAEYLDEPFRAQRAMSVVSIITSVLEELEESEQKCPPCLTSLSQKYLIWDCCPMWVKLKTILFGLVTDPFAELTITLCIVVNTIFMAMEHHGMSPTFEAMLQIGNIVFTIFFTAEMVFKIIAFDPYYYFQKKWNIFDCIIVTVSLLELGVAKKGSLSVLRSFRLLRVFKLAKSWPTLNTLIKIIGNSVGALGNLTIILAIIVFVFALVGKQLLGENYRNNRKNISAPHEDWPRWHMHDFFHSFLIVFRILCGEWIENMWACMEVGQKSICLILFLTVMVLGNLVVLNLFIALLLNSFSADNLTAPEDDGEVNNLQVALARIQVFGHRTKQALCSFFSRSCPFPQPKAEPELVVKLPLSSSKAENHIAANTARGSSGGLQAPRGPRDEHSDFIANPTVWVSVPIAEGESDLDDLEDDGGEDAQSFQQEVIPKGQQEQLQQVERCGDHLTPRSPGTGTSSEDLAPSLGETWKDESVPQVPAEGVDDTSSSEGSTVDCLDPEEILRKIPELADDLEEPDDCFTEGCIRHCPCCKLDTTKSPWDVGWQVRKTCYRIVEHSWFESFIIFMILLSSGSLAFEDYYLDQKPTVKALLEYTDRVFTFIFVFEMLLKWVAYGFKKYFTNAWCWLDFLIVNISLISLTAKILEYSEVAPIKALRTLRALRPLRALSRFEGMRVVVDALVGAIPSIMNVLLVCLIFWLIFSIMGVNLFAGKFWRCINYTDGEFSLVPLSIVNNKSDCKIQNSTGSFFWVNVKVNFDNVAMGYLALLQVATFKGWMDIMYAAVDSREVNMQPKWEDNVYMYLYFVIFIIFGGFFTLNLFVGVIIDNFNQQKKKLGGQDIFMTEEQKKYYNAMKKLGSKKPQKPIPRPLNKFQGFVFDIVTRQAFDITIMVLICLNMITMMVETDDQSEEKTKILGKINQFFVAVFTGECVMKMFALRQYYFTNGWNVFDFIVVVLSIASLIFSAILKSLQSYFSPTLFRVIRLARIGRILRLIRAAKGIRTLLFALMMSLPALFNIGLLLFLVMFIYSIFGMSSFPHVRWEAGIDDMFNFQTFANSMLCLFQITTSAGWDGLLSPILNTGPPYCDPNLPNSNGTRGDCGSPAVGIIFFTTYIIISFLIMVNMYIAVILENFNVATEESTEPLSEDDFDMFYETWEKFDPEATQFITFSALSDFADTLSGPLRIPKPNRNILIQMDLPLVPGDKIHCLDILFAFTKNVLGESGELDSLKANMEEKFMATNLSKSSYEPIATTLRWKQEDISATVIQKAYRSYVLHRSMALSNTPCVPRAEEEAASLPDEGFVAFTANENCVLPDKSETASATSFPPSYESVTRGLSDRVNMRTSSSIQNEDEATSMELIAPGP
# Target: human Nav1.8 sodium channel (Homo sapiens, UniProt Q9Y5Y9)
# Assay: Blocking activity on sodium channel 1.8 (Nav1.8), whole-cell manual patch clamp
# Format: cell-based
structure (smiles),measurement,value
"Cc1cc(F)ccc1Oc1cc(C(F)(F)F)ccc1C(=O)Nc1cc[nH]c(=O)c1 [VX-150, reference compound]",IC50,33.5 nM
